# “And” between values parts separate entries of the source, which are not always exact repeats. Equal values may be shown once. Read-outs that look alike come from different tables or passages of the source.
# What was measured:
# MM2MT = system: MM2MT
# Procedure: (§1) Each vector was then stably transfected into either MM3MG cells (ATCC No.CRL6376, a normal mouse mammary line) or MM2MT cells (ATCC No. CRL6373, a mouse mammary carcinoma line). Unless otherwise stated, all cell lines were purchased from the American Type Culture Collection (“ATCC”), Manassas, Va. To overexpress eIF4E (referred to as eIF4E-S, for “sense”), the eIF4E cDNA was cloned into KpnI and NotI sites of the pREP7 episomal vector (Invitrogen, Carlsbad, Calif.). To reduce the eIF4E expression (referred to as eIF4E-AS, for “antisense”), an antisense eIF4E construct was subcloned into the pREP7 vector as described in A. De Benedetti et al., “Expression of antisense RNA against initiation factor eIF-4E mRNA in HeLa cells results in lengthened cell division times, diminished translation rates, and reduced levels of both eIF-4E and the P220 component of eIF-4F,” Mol. Cell. Biol., vol. 11, pp. 5435-5445 (1991).
# (§2) All transfections were performed with the GenePORTER reagent (Gene Therapy Systems, San Diego, Calif.). Stable cell lines were obtained by selection with G418 for the BK constructs, and Hygromycin B for the pREP7 vectors.
# MM3MG = system: MM3MG
# Procedure: as §1, §2
structure (smiles),measurement,setting,value
"Nc1nc(O)c2ncn(COC(CO)CO)c2n1 [GCV, Ganciclovir]",Selective Index,MM2MT; MM2MT-TK cells,1000
same,Selective Index,MM2MT; MM2MT-TK/4E-AS cells,633
same,Selective Index,MM2MT; MM2MT-UTK cells,190
same,Selective Index,MM2MT; MM2MT-UTK/4E-AS cells,1.7
same,fold higher concentration of GCV to which cells became resistant,"MM2MT; MM2MT-UTK/4E-AS cells, eIF4E reduced with antisense RNA",370 fold
same,Selective Index,MM3MG; MM3MG-TK cells,667
same,Selective Index,MM3MG; MM3MG-UTK cells,2.7
same,Selective Index,MM3MG; MM3MG-UTK/4E-AS cells (so in the source),222
same,Selective Index,MCF7,300 and 600
same,Selective Index,MDA-231,1.5
same,Selective Index,MDA-435S,23.3

# Source: patent US7592320B2, “Cancer gene therapy based on translational control of a suicide gene” (priority 2001, dated 2009)
